Results on one substance are retold here after US20120220480A1, “METHOD FOR THE DETECTION OF RENAL DAMAGE” (UNIVERSIDAD DE SALAMANCA, priority 2009, published 2012).

One data set has as its system Female Wistar rats. Description: Gentamicin-induced kidney damage in rats: survival, body weight, serum and urine biochemical measurements. On the procedure:
(§1) Female Wistar rats were used weighing 200-250 g. The animals were allocated under controlled environmental conditions in individual metabolic cages, for individual urine sample collection every 24 hours. Normal feed and water were administered ad libitum. […] On day 7, the animals were anaesthetised with sodium pentobarbital and the kidneys were perfused by the aorta with saline (0.9% NaCl) to eliminate the blood. The kidneys were immediately dissected. One was frozen in liquid nitrogen and subsequently kept at −80° C. for Western blot studies, and the other was soaked in p-formaldehyde at 3.7% for histological studies. Blood samples were also obtained in heparinised capillaries at different time points by a small incision in the tail tip. Blood was centrifuged and serum was kept at −80° C. until use. Urine was cleared by centrifugation at 10,000 g and 4° C. during 10 minutes, and kept at −80° C. until use.
Serum and urinary creatinine and urea nitrogen concentration were measured using commercial reactive strips (Roche Diagnostics) and the Reflotron® automated analyser (Roche Diagnostics). […] Urine protein concentration was measured by the Bradford method (Bradford, 1976. Anal Biochem, 72: 248-254). Urine NAG content was indirectly determined by the level of NAG activity. NAG enzymatic activity was determined by a colorimetric method based on the conversion of 3-cresolsulfonphthaleinyl-N-acetyl-D-glucosaminide into the purple 3-cresol-cresolsulfonphthaleinyl, measured at 580 nm using a plate photometer (Thermo). To measure NAG activity a commercial kit was used (Roche Diagnostics) following the manufacturer's instructions.

The next data set concerns reg IIIb. Description: Western blot analysis of reg IIIb in urine and serum of treated rats. Particulars: albumin-depleted serum, rats treated during 6 days, to the detection limit. On the procedure:
Female Wistar rats were used weighing 200-250 g. The animals were allocated under controlled environmental conditions in individual metabolic cages, for individual urine sample collection every 24 hours. Normal feed and water were administered ad libitum. […] On day 7, the animals were anaesthetised with sodium pentobarbital and the kidneys were perfused by the aorta with saline (0.9% NaCl) to eliminate the blood. The kidneys were immediately dissected. One was frozen in liquid nitrogen and subsequently kept at −80° C. for Western blot studies, and the other was soaked in p-formaldehyde at 3.7% for histological studies. Blood samples were also obtained in heparinised capillaries at different time points by a small incision in the tail tip. Blood was centrifuged and serum was kept at −80° C. until use. Urine was cleared by centrifugation at 10,000 g and 4° C. during 10 minutes, and kept at −80° C. until use. […]

A further data set deals with gelsolin. Description: Western blot analysis of gelsolin in urine and serum of treated rats. How it is done:
as §1
Western blots were run with (i) urine samples (21 μl per sample), (ii) tissue extracts (100 μg total protein per sample) prepared by homogenizing the kidneys with a tissue mixer (Ultra-Turrax T8, IKA®-Werwe) at 4° C. in homogenization buffer (140 mM NaCl, 20 mM Tris-HCl pH=7.5, […] ethylenediaminetetraacetic acid—EDTA-, 10% glycerol, 1% Igepal CA-630, 1 μg/mL aprotinin, 1 μg/mL leupeptin, 1 μg/mL pepstatin A, 1 mM phenylmethylsulphonyl fluoride—PMSF—), or (iii) albumin-free blood serum. Albumin was removed from serum with a column-based, commercial kit based on the immunological retention of rat albumin (Qproteome Murine Albumin Depletion Kit, Quiagen). Samples were separated by electrophoresis in 10-15% acrylamide gels (Mini Protean II system, BioRad). Immediately, proteins were electrically transferred to an Immobilon-P membrane (Millipore). Membranes were probed with antibodies against KIM-1 (R&D Systems), bone morphogenetic protein 7 (BMP-7, Santa Cruz Biotechnology), NGAL (MBL), PAI-1 (BD Biosciences), reg IIIb (R&D Systems), and gelsolin (Santa Cruz Biotechnology).
A general note: In western blotting, separated proteins are transferred to a membrane and probed.

Setting [1] is: rats, gentamicin i.p. 150 mg/kg, after 7 days treatment.

Marks after values point to notes of the source that are not given here.

Regarding gentamicin, the “Renal failure (serum creatinine concentration and BUN)” value in the data set on Female Wistar rats (6 rats per group, nephrotoxic regime (FIG. 6-B)) was “developed an overt renal failure”. Also, in the data set with Female Wistar rats (rats, gentamicin group vs control group (Table 2)), the “Excretion of proteins relative to the control group” value is “more than 5 times”. In the data set on Female Wistar rats (setting [1]), the “BUN (blood urea nitrogen)” value is reported as 435.8 ± 47.9^a mg/dL, the “Creatinine (plasma creatinine concentration)” value is 3.3 ± 0.4^a mg/dL and the NAG excretion is reported as 744 ± 212^a UA/day. For the same substance, the “Time at which significant renal damage occurs (serum creatinine, NAG excretion, proteinuria, KIM-1, NGAL, PAI-1)” value in the data set on Female Wistar rats (rats, time course of treatment (FIG. 7)) is reported as 4 days. Besides, in the data set with reg IIIb, the “Serum level of reg IIIb” value was “absent”. The “Serum level of gelsolin” value with gelsolin (albumin-depleted serum, rats treated during 6 days (FIG. 8-B)) was “slightly increases”. In addition, the “Day on which urinary gelsolin (~43 kDa fragment) appears” value in the data set with gelsolin (rats, time course of treatment, Western blot (FIG. 7)) was 1 days. Moreover, the “~43 kDa gelsolin fragment (t-gelsolin) band in urine” value with gelsolin (urine of rats with overt renal failure, Western blot (FIG. 6)) is listed as “induces the appearance”.
